## Yeast mating assay B: variants of the scFv Ab-14

Source: Li et al. 2023 (doi:10.1038/s41467-023-39022-2), MIT Lincoln Laboratory and A-Alpha Bio; data file from the FLAb repository.

Antigen: PDVDLGDISGINAS, a 14-residue peptide of the SARS-CoV-2 spike HR2 region.

Ab-14 is the parent antibody, in scFv form: VH, then a 15-residue (Gly4Ser)3 linker, then VL. The light chain is unchanged in all variants.
VH: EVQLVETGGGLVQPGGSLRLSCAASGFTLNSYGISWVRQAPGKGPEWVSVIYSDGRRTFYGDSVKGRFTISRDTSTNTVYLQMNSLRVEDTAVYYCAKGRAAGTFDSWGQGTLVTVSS
VL: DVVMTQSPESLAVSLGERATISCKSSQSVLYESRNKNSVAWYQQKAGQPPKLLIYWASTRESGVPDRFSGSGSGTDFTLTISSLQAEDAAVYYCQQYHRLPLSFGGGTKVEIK

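Designed CDR sequences, proposed from the first random library and measured here. Their group label is 14H_Rand (Rand: our label for a block that the file lists under HC and that is probably the random mutants of the ten best first-round binders). In AlphaSeq, yeast of one mating type display the scFv and yeast of the other type display the target. After mating in shaken culture at 30 °C for 16 h, diploids were selected and their barcode pairs sequenced. A regression on co-assayed BCL2-family reference pairs converts the normalised counts of each replicate to an apparent Kd. Each pool was mated in six replicate cultures.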

Each variant is given by its three heavy chain CDRs, as the data file delimits them; those of the parent are GFTLNSYGIS, VIYSDGRRTFYGDSVK, GRAAGTFDS.
Numbers give log10(Kd / nM), so 0 is 1 nM and 3 is 1 µM. Smaller is tighter.
"ND" marks a missing value. The strain was present, yet no cells mated with the target were sequenced in that replicate, which points to weak or no binding.
The range of this assay differs from that of the first round, and the authors advise against merging the two.

CDR-H1 | CDR-H2 | CDR-H3 | replicates, log10 nM | signal with controls
GFTLMDYGCS | VIYSYGRRTFYGDSVK | SRAALTFHS | ND / ND / ND / ND / ND / ND | 0/18
GFTLKSYGIS | VIYSDGRRTFYDDSVK | GTLAGTFDS | 0.49 / 0.89 / 0.42 / 0.86 / 0.31 / 0.12 | 0/18
GFTLNQYGIS | VIYSDGGRTFYSDSVK | GRARGFFDM | ND / ND / ND / ND / ND / ND | 0/18
GFTLNDYGIS | VIYFDGRRTFEGDSVK | GRAALTFIS | ND / ND / ND / ND / ND / ND | 0/18
GFTLNQYGIS | VIYSDGRRQFYSDSVK | GRAAGFFDS | ND / 4.13 / ND / ND / ND / ND | 1/18 (2.01)
GFTLNQYGIS | VIYSDGFRTFYSISVK | GRAKGFFDS | ND / ND / ND / ND / ND / ND | 0/18
GFTLNEYGIK | VIYSDGRRTFYTDSVK | GRFAGTFTS | ND / ND / ND / ND / ND / ND | 0/18
GFELNDYPIS | VIYSDGRRTEYIDSVK | GRAAGTFDS | ND / ND / ND / ND / ND / ND | 1/18 (2.66)
GFTLNDYGIS | VFYSDGRRTQYGDSVK | GRAALTNIQ | ND / ND / ND / ND / ND / ND | 0/18
GFTLNSYGIS | VIYADGRKTFYGDSVK | GRANGTNKS | ND / ND / ND / ND / ND / ND | 0/18
GFTLNDYGIS | VIYSDGRRRFYGQSVK | GRAALTFIS | ND / ND / ND / ND / ND / ND | 0/18
GFTLNDYGIS | VIYSDGRRTQYIKSVK | GRAAGTFDS | ND / ND / ND / ND / ND / ND | 0/18
GFTLNSYGIS | VIYADGRRTFYGDSVK | GRNAGTHKS | ND / 3.12 / ND / ND / ND / ND | 1/18 (1.84)
GFTLKSYGIS | VIYSDGRRTFYSDSVK | GRAGGTFDS | ND / ND / ND / ND / ND / ND | 0/18
GFTLNSYGES | VIYADGRRTFYGDSVK | GRAAGTNKS | ND / ND / ND / ND / ND / ND | 0/18
GFTLNSYGIS | VIYNDGRRTFYGDSVK | GRAAGTNKS | ND / ND / ND / ND / ND / ND | 0/18
GFTSNDYGIS | VIYSDGRQTFQGDSVK | GRAALTFIS | ND / ND / ND / ND / ND / ND | 0/18
GFTLDSYGIS | VIYFDGRRTFYGDSVK | GRAAGTALM | ND / ND / ND / ND / ND / ND | 0/18
GFTLNSYGYS | VIYSDGRRTFYDDVVK | CQLAGTFDS | ND / ND / ND / ND / ND / ND | 0/18
GFDLNSYGYS | VIYSQGRRTFYGDSIK | GRAAGWFNS | ND / ND / ND / ND / ND / ND | 0/18
GFTLNSTGIS | VIYSDGRRTFYSDSVK | GRAGGTFDS | ND / ND / ND / ND / ND / ND | 0/18
GFTLNSYGIS | VIYSDVRRTFYSDSVK | GRAGGTFDS | ND / ND / ND / ND / ND / ND | 0/18
GFDLNSYGIS | VIYSDGRRTFYGDSVK | GHAAGWFNS | ND / ND / ND / ND / ND / ND | 0/18
GFTLNQYGIS | VIYSDGRRTFYKDSVK | GRAAGFFDS | ND / ND / ND / ND / ND / ND | 0/18
GFDLNSYGAS | VIYSDGRRTPYGDSVK | GRAAGWFNS | ND / ND / ND / ND / ND / ND | 0/18
GFTKNSYGIS | VIYADGIRTFYGDSVK | GRAAGTNKS | ND / ND / ND / ND / ND / ND | 0/18
GFTLNDYGIS | VIYSDGRRTFYGDSVK | GRAALSFIS | ND / ND / ND / ND / ND / ND | 0/18
GFDLNSYGIS | VIYSDGRRTRYGDSVK | GRALGWFNS | ND / ND / ND / ND / ND / ND | 0/18
GFTLDSYGIS | VIYADGRRTFYGDSVK | GSAAGTALS | ND / ND / ND / ND / ND / ND | 0/18
GFTLDSYPIS | VIYSDGRRTFYGDSVK | GRAAGTALD | ND / ND / ND / ND / ND / ND | 0/18
GFHLNGYGIS | VIRSDGRDTFYDDSVK | GQLAGTFDS | ND / ND / ND / ND / ND / ND | 1/18 (2.46)
GFTLNDYGIS | VIYSDGRRTQYIDSVK | GRAAGTQDS | ND / ND / ND / ND / ND / ND | 0/18
GLTLNQYGRS | VIYSDGWRTFYSDSVK | GAAAGFVDS | ND / ND / ND / ND / ND / ND | 0/18

Excerpt, the first 4 entries:

{"CDR-H1": "GFTLMDYGCS", "CDR-H2": "VIYSYGRRTFYGDSVK", "CDR-H3": "SRAALTFHS", "replicates, log10 nM": "ND / ND / ND / ND / ND / ND", "signal with controls": "0/18"}
{"CDR-H1": "GFTLKSYGIS", "CDR-H2": "VIYSDGRRTFYDDSVK", "CDR-H3": "GTLAGTFDS", "replicates, log10 nM": "0.49 / 0.89 / 0.42 / 0.86 / 0.31 / 0.12", "signal with controls": "0/18"}
{"CDR-H1": "GFTLNQYGIS", "CDR-H2": "VIYSDGGRTFYSDSVK", "CDR-H3": "GRARGFFDM", "replicates, log10 nM": "ND / ND / ND / ND / ND / ND", "signal with controls": "0/18"}
{"CDR-H1": "GFTLNDYGIS", "CDR-H2": "VIYFDGRRTFEGDSVK", "CDR-H3": "GRAALTFIS", "replicates, log10 nM": "ND / ND / ND / ND / ND / ND", "signal with controls": "0/18"}

The authors averaged sequences with at least three values out of six and counted those with two or fewer as poor binders.
Nonspecific signal, from three strains lacking the peptide, appeared in 1% of pairings of all heavy chain designs, centred on 2.08 (5% of these signals below 0.84); values are not corrected for it. Also given: how often the same scFv was detected with the empty control strains, with their mean in brackets.
Of ten entries with the parent sequence, four were seen in most replicates (averages 0.34 to 2.37), three in one and three in none, so single entries are noisy.